Measurements as given in paper PMC5329011 (Frontiers in Neuroscience, 2017).

What was measured:
apelin receptor [1] = target: T1, apelin receptor (Homo sapiens, UniProt P35414); test: Inhibition of forskolin-stimulated cAMP accumulation (DiscoverX); type: cell-based; conditions: 15 μmol/L forskolin, cells expressing human apelin receptor, mean ± SEM, n = replicates/experiments, read-out: pD2, inhibition of forskolin-stimulated cAMP (converted)
T1 sequence (P35414 1-380): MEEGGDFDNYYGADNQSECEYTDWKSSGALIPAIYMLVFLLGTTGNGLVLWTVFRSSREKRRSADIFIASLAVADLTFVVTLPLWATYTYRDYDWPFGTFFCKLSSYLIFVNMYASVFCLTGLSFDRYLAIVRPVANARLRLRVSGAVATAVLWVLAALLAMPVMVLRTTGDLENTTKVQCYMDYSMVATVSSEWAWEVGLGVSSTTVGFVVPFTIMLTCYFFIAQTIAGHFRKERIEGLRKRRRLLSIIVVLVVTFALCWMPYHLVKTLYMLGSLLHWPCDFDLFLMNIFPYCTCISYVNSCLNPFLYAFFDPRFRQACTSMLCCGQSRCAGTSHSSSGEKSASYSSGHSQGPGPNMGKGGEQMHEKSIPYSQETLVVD
Method: (§1) Inhibition of cAMP accumulation, β-arrestin recruitment and receptor internalization by apelin isoforms, modified and truncated apelin peptides were studied using cells expressing the human apelin receptor (DiscoverX, CA, USA) as per the manufacturer's instructions. In all assays the resulting chemiluminescent signal was measured as relative light units (RLU) using a LumiLITE™ Microplate Reader (DiscoveRx, Fremont, CA). […] Agonist responses were expressed as a % of the forskolin response. […] Data were analyzed using a 4-parameter logistic equation using GraphPad Prism 6 to determine values of potency, pD2 (−log10 EC50, where EC50 is the concentration producing half maximal response) and maximum response (EMAX). n-Values are given as number of replicates/number of experiments.

[2] = target: T2, vascular smooth muscle apelin receptor (Homo sapiens, UniProt P35414); test: Contraction of endothelium-denuded human saphenous vein; conditions: mean ± SEM, n = 9, read-out: pD2, contraction of saphenous vein (converted)
T2 construct: from tissue; host or cells: endothelium-denuded human saphenous vein
T2 sequence (P35414 1-380): T1 sequence (P35414 1-380)
Method: Vascular smooth muscle apelin receptor-mediated contraction was exploited in a bioassay to compare the in vitro potency of apelin peptides. […] Agonist responses were expressed as a % of a terminal response to KCl (100 mmol/L). […] Data were expressed as % of the terminal response to CaCl2. Data from vascular and cardiac experiments were analyzed using a 4-prameter logistic curve (GraphPad Prism 6) to determine values of pD2 and EMAX.

apelin receptor [3] = target: T1, apelin receptor; test: β-arrestin recruitment assay (DiscoverX); type: cell-based; conditions: cells expressing human apelin receptor, mean ± SEM, n = replicates/experiments, read-out: pD2, β-arrestin recruitment (converted)
Method: as §1

apelin receptor [4] = target: T1, apelin receptor; test: Competition binding with [Glp65,Nle75,Tyr77][125I]apelin-13 in human left ventricle homogenate; parameters: from tissue; host or cells: human left ventricle homogenate; conditions: 0.1 nmol/L radioligand, 90 min, 22°C, pH 7.4, Cheng-Prusoff, mean ± SEM, n = 3
Method: Assays were performed in human heart as previously described (Brame et al., [2015]). […] Equilibrium was broken by centrifugation (20,000 g for 10 min, 4°C) and pellets washed with Tris-HCl buffer (50 mmol/L, pH 7.4, 4°C), re-centrifuged and pellets counted for detection of bound radioactivity. Competition binding data were analyzed using GraphPad Prism 6 (GraphPad Software, Inc. La Jolla, CA, USA) to obtain values of pKi (the negative log10 of the dissociation constant derived from the IC50 for the competing ligands, the radioligand concentration and radioligand affinity by the Cheng and Prusoff equation). Experiments were performed in triplicate.
Measurements are mean ± standard error of the mean (SEM). […] Cell assay pD2 values were compared by one-way ANOVA followed by Tukey's multiple comparison test.

EC50 (apelin receptor [1]): 0.288 nM
EC50 [2]: 0.191 nM
EC50 (apelin receptor [3]): 10.5 nM
pKi (apelin receptor [4]): 8.07
SMILES: CSCC[C@H](NC(=O)[C@@H]1CCCN1C(=O)CNC(=O)[C@H](CCCCN)NC(=O)[C@H](Cc1c[nH]cn1)NC(=O)[C@H](CO)NC(=O)[C@H](CC(C)C)NC(=O)[C@H](CCCNC(=N)N)NC(=O)[C@@H]1CCCN1C(=O)[C@H](CCCNC(=N)N)NC(=O)[C@@H](N)CCC(N)=O)C(=O)N1CCC[C@H]1C(=O)N[C@@H](C)C(=O)O [apelin-13(F13A), reference compound]

pKi: −log10 of the molar value.
